Patent EP2042507A1, “Insecticidal derivatives of phosphorylated aminoheterocycles” (dated 2009)

Test: logP (acidic), lgP (HCOOH)

## CCCSP(=S)(OCC)N1CCO/C1=N\[C@H]1CCc2ccccc21 (some centres unmarked)
HCOOH (acidic)
  lgP (HCOOH): 2.09
acidic
  Phys. data = logP (acidic): 2.09
